# Antibody variant affinities, Ab-14 light chain, assay 1

The target is the same throughout: PDVDLGDISGINAS, from the HR2 region of SARS-CoV-2 spike.

Ab-14 is the parent antibody, in scFv form: VH, then a (GGGGS)3 linker, then VL. The heavy chain is unchanged in all variants.
VH: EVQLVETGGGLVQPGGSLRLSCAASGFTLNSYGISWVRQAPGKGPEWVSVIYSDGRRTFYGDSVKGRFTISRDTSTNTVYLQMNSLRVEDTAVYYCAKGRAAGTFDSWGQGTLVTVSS
VL: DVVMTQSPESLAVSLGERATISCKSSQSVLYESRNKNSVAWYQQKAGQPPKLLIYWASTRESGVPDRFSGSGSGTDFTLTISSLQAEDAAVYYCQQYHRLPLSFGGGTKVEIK

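The parent was found by panning a naive human phage display library on the peptide. The library (AAYL50) carries one to three amino acid substitutions per variant, with no insertions or deletions. AlphaSeq pools MATa yeast showing the antibodies with MATalpha yeast showing the peptide. Binding brings cells together so that they mate, and sequencing counts the barcode pairs among the diploids. A regression on co-assayed BCL2-family reference pairs converts the normalised counts of each replicate to an apparent Kd. Each pool was mated in three replicate cultures.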

Variants are written as CDR1, CDR2 and CDR3 of the light chain (limits as in the source). Parent: KSSQSVLYESRNKNSVA, WASTRES, QQYHRLPLS.
This list gathers variants with a substitution at R99 (VL, numbered from residue 1).
Values are log10 of the apparent Kd in nM; lower means stronger binding.
Where no diploid with the target was found in that replicate, the entry reads "nd": below detection, most likely a poor binder, though not proof of it.
Empty control strains, which show no peptide, gave a signal in 18% of pairings with library AAYL50; the median was 4.19 and 95% of these signals were weaker than 2.99. No background was subtracted.

* KSSQSVLYESRNKNSVA, CASTRES, QQYHPLPLS: 3.54, nd, 2.71
* KSSCSVLYESRNKNSVA, WASTRES, QQYIMLPLS: 1.28, 1.38, 1.42
* ASSQSVLYESRNKNSVA, WASTRES, IQYHYLPLS: nd, nd, nd
* KSSQSVLYESRNKNSVA, WMSTRHS, QQYHLLPLS: 6.64, 3.89, 5.37
* KSSQSVLYESRNKNNVA, KASTRES, QQYHWLPLS: 0.34, 0.43, 0.41
* KSSQSVLYESRNKNSVA, WASTRHS, QQYHALPLS: nd, nd, nd
* KSSQSVSYESRNKNCVA, WASTRES, QQYHPLPLS: nd, 3.20, nd
* KSSQSVLYESRNKNSVA, WASTRES, QQYHGLPLS: nd, nd, 1.80
* KSNQSVLYESRNKNSVA, WASTAES, QQYHYLPLS: nd, 3.07, 5.81
* KSSQSVLYESRNKNSVA, WASTRES, QQYHVLPLS: 2.27, 2.35, 2.04
* KSSQSVLYESRNKNWVA, WASTRES, QQYSILPLS: nd, nd, nd
* KQSQSVLYESRNKNSVA, WASTRES, QQYHFLPLS: 2.45, 1.92, 2.71
* KSPQSVLYESRNKNSVA, WASTRES, QQYHCLMLS: nd, nd, nd
* KSSQSVLYESLNKNSVA, WASTRES, QQYHLLPLS: 2.82, 2.30, 2.52
* KSSQSMLYESRNKNIVA, WASTRES, QQYHALPLS: nd, nd, nd
* KSSQSVLYESRNKNQVA, WAQTRES, QQYHYLPLS: nd, 3.64, 4.37
* KSSQSVLYESRNKNSVA, WASQRES, QCYHFLPLS: 2.08, 2.30, 2.47
* KSSQSVLYESRNKNSVA, WASTRQS, QQYHGLPLT: 2.40, 2.81, nd
* KSSQSVLYESRNKNFVA, WASTRPS, QQYHSLPLS: 4.14, 5.04, nd
* KSSQSVLYESRNINSVA, WASTRES, QQYHMLPAS: nd, nd, nd
* KSSNSVLYMSRNKNSVA, WASTRES, QQYHVLPLS: 1.65, 1.63, 1.70
* KSSCSVLYESRNKNSVA, WASTEES, QQYHCLPLS: nd, nd, nd
* KSSQSVLYESRNKNSVA, WASTRES, QQYHFLPLS: 2.78, 3.05, 2.04
* KSSQSVLCESRNKNSVA, WASTRES, QQYHATPLS: 3.91, 4.87, 5.49
* KSSQSVLYESRNKNSVA, WASTREY, CQYHGLPLS: nd, nd, 6.25
* WSSQSVLYEERNKNSVA, WASTRES, QQYHELPLS: nd, nd, nd
* KSSQSVLYESRNKNTVA, WASTRFS, QQYHTLPLS: 3.29, 3.29, 2.89
* KSSQSVLYESRNKNSVA, WASTYES, QQYVKLPLS: nd, nd, nd
* KSSQSVLYESRNKNSVA, WASTREI, QQYLELPLS: 7.15, nd, 5.62
* KSSQSVLYESRNKNSVA, WAETRES, QQYHWLFLS: 1.37, 1.54, 1.55
* KSSQSVLYESVNKNYVA, WASTRES, QQYHWLPLS: nd, nd, 3.56
* KSHQSVLYESRNKYSVA, WASTRES, QQYHFLPLS: 2.26, 2.07, 2.19
* KSSQSVLYESRNKMSVA, WASTRES, QMYHFLPLS: 3.82, nd, nd
* KSSRSKLYESRNKNSVA, WASTRES, QQYHSLPLS: 1.59, 1.35, 1.91

Source: Engelhart et al. 2022 (doi:10.1038/s41597-022-01779-4), MIT Lincoln Laboratory and A-Alpha Bio; data file from the FLAb repository.